Experimental data from patent US6979436B2, “Opioid metallopeptide compositions and methods” (Palatin Technologies, Inc., priority 1999, dated 2005).

Chains of the proteins cited; added tags and fusions are not shown. Lines headed by an entry give the natural chain unless they say otherwise; changes in a name come on top.
UniProt P41144: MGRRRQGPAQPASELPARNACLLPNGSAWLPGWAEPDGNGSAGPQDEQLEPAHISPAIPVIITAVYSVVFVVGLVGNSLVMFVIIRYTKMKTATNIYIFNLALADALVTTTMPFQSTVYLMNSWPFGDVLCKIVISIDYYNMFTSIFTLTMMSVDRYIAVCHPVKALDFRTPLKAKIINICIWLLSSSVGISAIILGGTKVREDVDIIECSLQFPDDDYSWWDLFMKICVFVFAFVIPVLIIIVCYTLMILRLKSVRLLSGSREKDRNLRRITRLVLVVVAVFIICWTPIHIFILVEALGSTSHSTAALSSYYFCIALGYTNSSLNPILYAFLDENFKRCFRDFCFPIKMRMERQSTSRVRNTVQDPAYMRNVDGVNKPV

Target: κ opiate receptor (Cavia porcellus, UniProt P41144)
Assay: κ receptor binding assay, guinea-pig brain membrane, 3H-U69593 displacement
Conditions: read-out: Receptor Binding Assay [Ki in μM] Kappa Receptor

Leu-Enkephalin [reference compound]
Ki: 0.00214 µM
